Values of other authors in patent US20170037086A1, “PEPTIDOMIMETIC MACROCYCLES WITH PTH ACTIVITY” (AILERON THERAPEUTICS, INC., priority 2014, published 2017).

The chains behind the UniProt entries cited, without tags or fusion partners. Residues count along the entry.
UniProt P49190, 25-550: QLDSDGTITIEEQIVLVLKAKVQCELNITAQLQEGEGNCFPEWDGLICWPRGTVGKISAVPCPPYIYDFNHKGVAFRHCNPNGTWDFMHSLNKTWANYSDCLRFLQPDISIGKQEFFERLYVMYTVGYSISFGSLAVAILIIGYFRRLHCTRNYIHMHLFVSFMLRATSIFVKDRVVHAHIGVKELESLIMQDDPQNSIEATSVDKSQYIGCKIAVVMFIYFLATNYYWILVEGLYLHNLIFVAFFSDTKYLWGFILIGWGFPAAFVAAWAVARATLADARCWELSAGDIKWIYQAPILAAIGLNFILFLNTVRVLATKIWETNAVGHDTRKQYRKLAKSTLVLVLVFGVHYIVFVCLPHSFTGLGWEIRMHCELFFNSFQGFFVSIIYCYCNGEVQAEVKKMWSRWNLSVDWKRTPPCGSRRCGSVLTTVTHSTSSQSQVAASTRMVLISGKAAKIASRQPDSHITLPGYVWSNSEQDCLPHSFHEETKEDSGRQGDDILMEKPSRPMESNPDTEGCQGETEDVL

Molecular target: T1, PTH receptor type 2 (Homo sapiens, UniProt P49190)
T1 construct: expressed in transfected cells; host or cells: CHO-k1/PTH2R/Gα15
Details: reference value, cited from earlier work

| Substance | IC50 (control antagonist) [nM] | EC50 (reference agonist) [nM] |
| --- | --- | --- |
| PTHrP-7-34 | 1000 |  |
| TIP-39 |  | 2 |
